Active and inactive are the calls of the source. The calls are words filed in the database; no cut-off is given here.

The source of these data is ChEMBL document CHEMBL3994604, “Ostalactones A-C, β- and ε-Lactones with Lipase Inhibitory Activity from the Cultured Basidiomycete Stereum ostrea” (J Nat Prod, 2016).

The target of the experiment is T1, Pancreatic triacylglycerol lipase (Homo sapiens) (UniProt P16233).
T1 sequence (whole entry): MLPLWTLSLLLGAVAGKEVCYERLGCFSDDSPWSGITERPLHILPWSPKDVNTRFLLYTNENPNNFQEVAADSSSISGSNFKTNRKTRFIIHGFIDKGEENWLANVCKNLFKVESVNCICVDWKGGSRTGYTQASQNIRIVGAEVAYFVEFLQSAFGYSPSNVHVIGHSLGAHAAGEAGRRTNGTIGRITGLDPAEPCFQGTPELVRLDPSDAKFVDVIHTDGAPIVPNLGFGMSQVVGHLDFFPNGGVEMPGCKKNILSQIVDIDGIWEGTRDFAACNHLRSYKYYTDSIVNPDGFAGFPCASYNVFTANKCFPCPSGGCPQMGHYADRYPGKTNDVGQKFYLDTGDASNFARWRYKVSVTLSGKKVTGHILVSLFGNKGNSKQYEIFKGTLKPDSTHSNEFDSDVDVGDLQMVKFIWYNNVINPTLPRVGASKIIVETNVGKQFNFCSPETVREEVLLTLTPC
The experiment in a line: Inhibition of human pancreatic lipase using 4-methylumbelliferyl oleate as substrate after 30 mins by fluorometric method.

In the case of `C/C(=C\CC1C=C(CO)C=COC1=O)CO` (stereo unspecified), the inhibition result is “inactive”.
